In patent US11813252B2 (dated 2023):

Assay: in vivo
Conditions: C57BL6, mouse, brain/plasma, oral

Kp at 1 h: 0.04
Kp at 4 h: 0.11
SMILES: Cc1nc(Nc2ncc(C(=O)Nc3c(C)cccc3Cl)s2)cc(N2CCN(CCO)CC2)n1 [Dasatinib, dasatinib]
